# Experimental data: US20230013419A1, “ANALOGUES OF 3-(5-METHYL-1,3-THIAZOL-2-YL)-N-{(1R)-1-[2-(TRIFLUORO-METHYL)PYRIMIDIN-5-YL]ETHYL}BENZAMIDE” (Bayer Aktiengesellschaft, priority 2019, published 2023)
# Assay: High throughput aqueous solubility in phosphate buffer pH 6.5
# Format: physicochemical
# Experimental: Examples were tested for its solubility in aqueous media (pH 6.5). Examples were synthesized one or more times in accordance with the above-described protocols. When synthesized more than once, data from solubility assays represent average values or median values calculated utilizing data sets obtained from testing of one or more synthetic batch.
# The high throughput screening method to determine aqueous drug solubility is based on Thomas Onofrey and Greg Kazan, Performance and correlation of a 96-well high throughput screening method to determine aqueous drug solubility, Millipore Corporation Application Note, 2003; Lit. No. AN1731EN00.
# The assay was run in a 96-well plate format. Each well was filled with an individual compound.
# All pipetting steps were performed using a robot platform.
# 100 μl of a 10 mmolar solution of drug in DMSO were concentrated by vacuum centrifugation and resolved in 10 μl DMSO. 990 μl phosphate buffer pH 6.5 were added. The content of DMSO amounts to 1%. The multititer plate was put on a shaker and mixed for 24 hrs at room temperature. 150 μl of the suspension were transferred to a filtration plate. […] Filtrate and calibration plates were quantified by HPLC-MS/MS. […]
# The areas of sample- and calibration injections were determined by using mass spectrometry software (AB SCIEX: Discovery Quant 2.1.3. and Analyst 1.6.1). […]
substance,measurement,setting,value
"{[(3R,5R)-5-Hydroxytetrahydrofuran-3-yl]oxy}-5-(5-methyl-1,3-thiazol-2-yl)-N-{(1R)-1-[2-(trifluoromethyl)pyrimidin-5-yl]ethyl}benzamide and {[(3R,5S)-5-hydroxytetrahydrofuran-3-yl]oxy}-5-(5-methyl-1,3-thiazol-2-yl)-N-{(1R)-1-[2-(trifluoromethyl)pyrimidin-5-yl]ethyl}benzamide [Example 1]",solubility compared to example 11 of WO2016/091776 A1,"aqueous, pH 6.5",significantly improved solubility
same,Aqueous Solubility pH 6.5,"phosphate buffer pH 6.5, 1% DMSO, 24 hrs at room temperature",46.0 mg/L
